Values of other authors, collected in US8394607B2, “Anti-CD22 antibodies and immunoconjugates and methods of use” (Genentech, Inc., priority 2006, dated 2013).

Settings: human, in vivo; cited from earlier work

B1: ZEVALIN (conjugate, chains of the INN, looked up)
heavy: QAYLQQSGAELVRPGASVKMSCKASGYTFTSYNMHWVKQTPRQGLEWIGAIYPGNGDTSYNQKFKGKATLTVDKSSSTAYMQLSSLTSEDSAVYFCARVVYYSNSYWYFDVWGTGTTVTVSAPSVYPLAPVCGDTTGSSVTLGCLVKGYFPEPVTLTWNSGSLSSGVHTFPAVLQSDLYTLSSSVTVTSSTWPSQSITCNVAHPASSTKVDKKIEPRGPTIKPCPPCKCPAPNLLGGPSVFIFPPKIKDVLMISLSPIVTCVVVDVSEDDPDVQISWFVNNVEVHTAQTQTHREDYNSTLRVVSALPIQHQDWMSGKEFKCKVNNKDLPAPIERTISKPKGSVRAPQVYVLPPPEEEMTKKQVTLTCMVTDFMPEDIYVEWTNNGKTELNYKNTEPVLDSDGSYFMYSKLRVEKKNWVERNSYSCSVVHEGLHNHHTTKSFSR
light: QIVLSQSPAILSASPGEKVTMTCRASSSVSYMHWYQQKPGSSPKPWIYAPSNLASGVPARFSGSGSGTSYSLTISRVEAEDAATYYCQQWSFNPPTFGAGTKLELKRADAAPTVFIFPPSDEQLKSGTASVVCLLNNFYPREAKVQWKVDNALQSGNSQESVTEQDSKDSTYSLSSTLTLSKADYEKHKVYACEVTHQGLSSPVTKSFN
modifications: 90Y tiuxetan chelate
adverse effect of administration: severe and prolonged cytopenias in most patients
